Ab-14 light chain CDR variants: yeast mating affinities

The measurements come from Engelhart et al. 2022 (doi:10.1038/s41597-022-01779-4) through the FLAb antibody collection.

The target is the same throughout: PDVDLGDISGINAS, from the HR2 region of SARS-CoV-2 spike.

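Phage display of a naive human antibody library on the peptide gave the parent. Variants in AAYL50 differ from the parent at up to three CDR positions; double and triple changes were sampled at random. The assay is AlphaSeq: two haploid yeast populations carry antibody and antigen on their surface. After mating in shaken culture at 30 °C for 16 h, diploids were selected and their barcode pairs sequenced. Read counts were normalised to the haploid input and turned into Kd by a linear fit to BCL2-family pairs of known affinity, for each replicate. The assay was run in three technical replicates.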

Parent scFv Ab-14: VH joined to VL by the linker GGGGSGGGGSGGGGS. Changes lie in the light chain CDRs alone.
VH: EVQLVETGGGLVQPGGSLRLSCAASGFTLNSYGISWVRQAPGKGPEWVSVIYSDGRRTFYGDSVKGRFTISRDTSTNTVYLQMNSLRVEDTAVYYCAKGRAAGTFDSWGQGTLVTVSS
VL: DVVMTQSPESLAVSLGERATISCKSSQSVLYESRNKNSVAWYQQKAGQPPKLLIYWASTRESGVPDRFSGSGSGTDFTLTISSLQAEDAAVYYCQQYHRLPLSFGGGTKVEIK

Changes read parent residue, position, new residue, counted from the first residue of the VL shown. Affinities are written as log10 Kd with Kd in nM; a lower number is a better binder. An entry "nd" has no value in the source: the pair was not observed among the diploids in that replicate. This suggests poor binding but is not conclusive. As a blank, each scFv also met three strains without target: over library AAYL50, 18% of these pairings were detected, typically at 4.19 and seldom below 2.99. For each scFv, signals with the empty controls are counted beside the result, with their mean in brackets.

changes	log10 Kd (nM) by replicate	empty controls
N35L+Q95N+L102P	4.70 / nd / nd	0 of 9
S38T+A40I+L100D	nd / nd / nd	1 of 9 (4.18)
K36M+A57L+L102A	nd / 3.43 / nd	2 of 9 (3.89)
R60L+S62W+Q96T	2.72 / 1.90 / 2.76	5 of 9 (3.81)
S25T+Y31M+R60W	nd / nd / nd	0 of 9
S26V+L102A+S103H	3.34 / nd / nd	1 of 9 (3.47)
L30V+Q96N	0.66 / 0.85 / 0.84	0 of 9
S25I+N37Q+R99A	0.82 / 0.64 / 0.44	0 of 9
S26M+N35Y+S38D	nd / nd / 2.39	0 of 9
Q27E+S28H+N35K	1.22 / 1.65 / 1.37	3 of 9 (4.12)
K36D+Q95W+P101C	nd / nd / 2.84	0 of 9
E32T+S33A+E61M	1.10 / 1.23 / 1.16	4 of 9 (4.68)
R34S+S58R+L100I	1.69 / 2.19 / 2.17	0 of 9
V29L+S58G	1.33 / 1.62 / 1.72	0 of 9
A40W+A57H+T59P	nd / nd / nd	2 of 9 (2.01)
K36A+T59P+L100H	nd / nd / nd	3 of 9 (4.08)
R34S+S58K	3.94 / 4.57 / 3.97	8 of 9 (4.53)
V29R+N35I+E61Q	nd / 3.06 / nd	0 of 9
Y31L+Q95S	nd / nd / nd	0 of 9
S26H+V39L+W56I	nd / 3.27 / 4.57	1 of 9 (3.31)
A40V+E61D	nd / nd / 3.93	2 of 9 (3.32)
L30W+N37T	1.54 / 1.40 / 1.72	3 of 9 (4.23)
L30K+S38C+S103I	5.73 / 3.39 / nd	4 of 9 (4.84)
V29Q+L30R+K36V	1.07 / 1.41 / 1.77	0 of 9
K24P+S25D+W56T	2.84 / 4.79 / nd	1 of 9 (3.66)
S38D+E61F+S103F	nd / nd / nd	1 of 9 (4.06)
S28L+Y97Q+P101D	1.66 / 1.63 / 1.81	7 of 9 (5.21)
K24V+S28A+V39T	5.15 / nd / nd	3 of 9 (4.21)
W56Y+T59H	1.62 / 2.19 / 2.00	2 of 9 (4.23)
N37A+A40W+E61R	3.96 / nd / 3.45	2 of 9 (4.49)
V29C+Y97R+S103C	nd / nd / nd	1 of 9 (4.31)
K24D+N37R+P101L	nd / nd / nd	3 of 9 (3.65)
V29Y+R60L	3.63 / 2.82 / 2.68	3 of 9 (3.57)
S25G+S38Y+A57L	nd / nd / nd	0 of 9
V29A+S38W+Q96L	3.50 / nd / nd	2 of 9 (3.98)
K24A	1.37 / 1.25 / 1.40	0 of 9
Y31N+A40Q+A57S	nd / nd / 3.55	3 of 9 (3.69)
S26A+V39H+L100N	nd / nd / nd	0 of 9
K36Q+T59P	nd / nd / 5.42	1 of 9 (4.25)
Y31V+R34D+H98T	0.32 / 0.54 / 0.46	1 of 9 (5.09)
T59R+R60W+R99F	nd / 3.23 / 5.84	2 of 9 (4.12)
A57N+L102I+S103A	nd / nd / 4.29	1 of 9 (3.75)
S33V+S38V+S62C	5.83 / nd / 4.88	2 of 9 (4.06)
N35K+K36Y+L100Y	1.69 / 1.68 / 1.81	7 of 9 (4.66)
L30C+E61W+Q96G	1.61 / 1.79 / 1.55	1 of 9 (4.05)
R34Y+A57L+R99M	nd / 3.21 / nd	1 of 9 (3.01)
S58H+L102S+S103A	0.75 / 0.94 / 0.93	1 of 9 (2.73)
V29S	1.15 / 1.41 / 1.63	1 of 9 (3.18)

The opening 5 entries, copied out:

changes	log10 Kd (nM) by replicate	empty controls
N35L+Q95N+L102P	4.70 / nd / nd	0 of 9
S38T+A40I+L100D	nd / nd / nd	1 of 9 (4.18)
K36M+A57L+L102A	nd / 3.43 / nd	2 of 9 (3.89)
R60L+S62W+Q96T	2.72 / 1.90 / 2.76	5 of 9 (3.81)
S25T+Y31M+R60W	nd / nd / nd	0 of 9